Data published in PMC6690782 (Bioorganic & medicinal chemistry letters, 2019).

Sequences of proteins named here, by UniProt entry; tags and fusion partners are left off. A change or cut given only in a name is not applied to a line headed by its entry.
UniProt Q01650: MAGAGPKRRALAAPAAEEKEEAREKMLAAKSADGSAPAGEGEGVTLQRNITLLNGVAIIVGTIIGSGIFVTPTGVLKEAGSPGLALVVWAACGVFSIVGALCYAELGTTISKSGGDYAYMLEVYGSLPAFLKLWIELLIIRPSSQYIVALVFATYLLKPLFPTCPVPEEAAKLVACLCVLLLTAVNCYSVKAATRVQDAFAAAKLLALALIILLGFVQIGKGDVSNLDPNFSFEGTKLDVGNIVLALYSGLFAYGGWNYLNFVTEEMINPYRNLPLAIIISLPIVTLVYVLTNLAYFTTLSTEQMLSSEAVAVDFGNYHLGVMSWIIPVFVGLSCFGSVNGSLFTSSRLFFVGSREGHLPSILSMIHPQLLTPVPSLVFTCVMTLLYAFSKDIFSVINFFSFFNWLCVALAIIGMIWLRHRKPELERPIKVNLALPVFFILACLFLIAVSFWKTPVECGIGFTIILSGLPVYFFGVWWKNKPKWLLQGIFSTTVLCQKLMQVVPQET

What follows are compounds tested against LAT1 (Homo sapiens, UniProt Q01650) (assay: cis-inhibition assay: inhibition of [3H]-gabapentin uptake into HEK-hLAT1 cells).
Format: cell-based

**Q.** Which inhibition at 200 µM does the source give for `N[C@@H](Cc1ccccn1)C(=O)O` [Compound 19] here?
**A.** The inhibition at 200 µM was 84%.

**Q.** `N[C@@H](Cc1cccnc1)C(=O)O` [Compound 20] was tested. Which inhibition at 200 µM did it give?
**A.** The inhibition at 200 µM was 98%.

**Q.** For `N[C@@H](Cc1ccncc1)C(=O)O` [Compound 21], which inhibition at 200 µM is on record?
**A.** Its inhibition at 200 µM is 99%.
